Literature values as cited in US20070092546A1, “Thiamin based insect repellant” (Violet Fire, LLC, priority 2005, published 2007).

Details: with most commercially available solvents; cited from earlier work

Substance: Thiamin mononitrate
- solubility: not readily soluble
